The conditions of the data set: experimental values compiled from the literature.

Compound `C=NNc1ccc([N+](=O)[O-])cc1[N+](=O)[O-]` yielded a logP of 2.33.
The compound `O=[N+]([O-])N1CN([N+](=O)[O-])CN([N+](=O)[O-])C1` returned a logP of 0.87.

One may read the logP as a log measure of how a compound divides between an organic and an aqueous phase.

The record behind these values is the OPERA property sets (Mansouri et al. 2018).
